How the values were obtained:
[1] = molecular target: biotinylated truncated STAT6 (123-632)-avi (Homo sapiens, UniProt P42226); assay: Homogenous Time-Resolved Fluorescence (HTRF) binding assay; details: read-out: STAT6 HTRF: Average IC50; 0.15 nM biotinylated truncated STAT6 (123-632)-avi, 20 nM fluorescein-labeled probe, 30 minutes at room temperature
Experimental: Example 1. Homogenous Time-Resolved Fluorescence (HTRF) Binding Assay
HTRF binding assays were performed using 0.15 nM biotinylated truncated STAT6 (123-632)-avi purified from E. coli, 1× Streptavidin-terbium (CisBio) prepared by mixing SA-Tb in PPI detection buffer (CisBio), 20 nM proprietary fluorescein-labeled probe, and test compounds in assay buffer consisting of 50 mM HEPES-Na pH 7.5, 100 mM NaCl, 1 mM EDTA, 2 mM DTT, 0.1% Tween-20 with a final volume of 20 uL. Compound stocks were dissolved at 10 mM in 100% DMSO and 11 point titration with 3 fold serial dilution was performed in white, opaque 384 well microplates. Reaction plates were incubated at room temperature for 30 minutes. Plates were centrifuged at low rpm for 5 mins, and the ratio of fluorescence intensities were measured at emission wavelengths for fluorescein acceptor (520 nm) and terbium donor (495 nm) on Envision Plate reader. % Inhibition was calculated from the 520/495 ratio generated by using proprietary positive control compound for 100% inhibition and DMSO only reactions for 0% inhibition. Data was processed and dose response curves were generated using GraphPad Prism to determine the concentration required for inhibiting 50% of the HTRF signal (IC50).

Protein sequences, listed by entry. Tags and fused reporters are not part of them. Residues count along the entry.
UniProt P42226, 123-632 limits assumed: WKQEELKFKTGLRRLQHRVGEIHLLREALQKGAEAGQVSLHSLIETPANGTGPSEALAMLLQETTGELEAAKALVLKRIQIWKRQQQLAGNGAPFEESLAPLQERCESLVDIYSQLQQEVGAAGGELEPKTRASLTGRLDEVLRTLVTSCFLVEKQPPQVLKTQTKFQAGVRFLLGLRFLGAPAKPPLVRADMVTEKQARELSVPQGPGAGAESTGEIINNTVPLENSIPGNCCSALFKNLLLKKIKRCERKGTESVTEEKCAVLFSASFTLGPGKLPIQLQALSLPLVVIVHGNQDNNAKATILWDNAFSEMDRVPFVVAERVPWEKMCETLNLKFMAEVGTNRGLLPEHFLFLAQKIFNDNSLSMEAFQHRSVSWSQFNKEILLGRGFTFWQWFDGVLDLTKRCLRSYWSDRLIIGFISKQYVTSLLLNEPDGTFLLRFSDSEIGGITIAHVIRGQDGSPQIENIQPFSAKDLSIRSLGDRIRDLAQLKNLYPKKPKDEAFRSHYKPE

[2] = system: Phosphorylation of STAT6 in human A549 cells; assay: Phosphorylated STAT6 (pSTAT6) flow cytometry assay in human A549 cells; details: read-out: STAT6 IL4 pSTAT6 assay in A549 cells: Average IC50
From the text: Example 3. Phosphorylated STAT6 (pSTAT6) Flow Cytometry Assay in Human A549 Cells
Phosphorylation of STAT6 in human A549 cells was quantitatively measured using flow cytometry technology.

`CCn1nccc1-c1cc(C2=CCCN(C(=O)CCn3ccnn3)C2)c(F)c2[nH]c(C(=O)N3Cc4cnn(CC)c4C3)cc12` gave an IC50 [1] of under 0.1 µM and an IC50 [2] of under 0.1 µM.

`COc1ccncc1-c1cc(C2=CCCN(C(=O)CCn3ccnn3)C2)c(F)c2[nH]c(C(=O)N3CCN(c4cccc(OC)c4F)CC3)cc12` showed an IC50 [1] of under 0.1 µM and an IC50 [2] of under 0.1 µM.

Compound `COc1cc2[nH]ccc2cc1-c1cc(C2=CCCN(C(=O)CCn3ccnn3)C2)cc2[nH]c(C(=O)N(C)C)cc12` has an IC50 [1] of under 0.1 µM and an IC50 [2] of under 0.1 µM.

Work on `COc1cc(F)c(F)cc1-c1cc(C2=CCCN(C(=O)CCn3ccnn3)C2)c(F)c2[nH]c(C(=O)N3CCN(c4ncc(Cl)cc4OC)CC3)cc12` yielded an IC50 [1] of 0.1 to 1 µM and an IC50 [2] of 0.1 to 1 µM.

`COc1ccccc1-c1cc(C2=CCCN(C(=O)CCn3ccnn3)C2)c(F)c2[nH]c(C(=O)N3CCC4(CCO4)CC3)cc12` showed an IC50 [1] of under 0.1 µM and an IC50 [2] of under 0.1 µM.

For `CCn1ncc2c1CN(C(=O)c1cc3c(-c4cc(F)ccc4F)cc(C4=CCCN(C(=O)CCn5ccnn5)C4)c(F)c3[nH]1)C2`, the IC50 [1] was under 0.1 µM and the IC50 [2] was under 0.1 µM.

Work on `COc1ccccc1-c1cc(C2=CCCN(C(=O)CCn3ccnn3)C2)c(F)c2[nH]c(C(=O)N3C[C@H](C)O[C@@H](C)C3)cc12` yielded an IC50 [1] of 0.1 to 1 µM and an IC50 [2] of 0.1 to 1 µM.

`CCc1cc(C)c(-c2cc(C3=CCCN(C(=O)CCn4ccnn4)C3)c(F)c3[nH]c(C(=O)N4CCN(c5nc(C)c(F)cc5OC)CC4)cc23)cn1` was tested, and the IC50 [1] was under 0.1 µM and the IC50 [2] was under 0.1 µM.

With `CCc1cc(C)ncc1-c1cc(C2=CCCN(C(=O)CCc3nccs3)C2)c(F)c2[nH]c(C(=O)N3CCN(c4ncc(C)nc4OC)CC3)cc12` the IC50 [1] was 0.1 to 1 µM and the IC50 [2] was 0.1 to 1 µM.

Compound `COc1cc(F)cnc1N1CCN(C(=O)c2cc3c(-c4cccc5nc(C)ccc45)cc(C4=CCCN(C(=O)CCn5ccnn5)C4)c(F)c3[nH]2)CC1` has an IC50 [1] of under 0.1 µM and an IC50 [2] of under 0.1 µM.

`COc1ccccc1-c1cc(C2=CCCN(C(=O)CCn3ccnn3)C2)c(F)c2[nH]c(C(=O)N3CCN(c4cccc(OC)c4OC)CC3)cc12` showed an IC50 [1] of under 0.1 µM and an IC50 [2] of under 0.1 µM.

Work on `CCn1ncc2c1CN(C(=O)c1cc3c(-c4cccnn4)cc(C4=CCCN(C(=O)CCn5ccnn5)C4)c(F)c3[nH]1)C2` yielded an IC50 [1] of under 0.1 µM and an IC50 [2] of under 0.1 µM.

In the case of `COc1ccccc1-c1cc(C2=CCCN(C(=O)CCn3ccnn3)C2)c(F)c2[nH]c(C(=O)N3CCC[C@H](c4ccccc4)C3)cc12` (single isomer, unassigned), the IC50 [1] is reported as 0.1 to 1 µM and the IC50 [2] is reported as 0.1 to 1 µM.

`COc1cc(F)cnc1N1CCN(C(=O)c2cc3c(-c4cccc5ccncc45)cc(C4=CCCN(C(=O)CCn5ccnn5)C4)c(F)c3[nH]2)CC1` showed an IC50 [1] of under 0.1 µM and an IC50 [2] of under 0.1 µM.

For `COc1ccccc1-c1cc(C2=CCCN(C(=O)CCn3ccnn3)C2)c(F)c2[nH]c(C(=O)N3CCO[C@@H](C)C3)cc12`, the IC50 [1] was under 0.1 µM and the IC50 [2] was under 0.1 µM.

`COC[C@H]1CN(C(=O)c2cc3c(-c4ccccc4OC)cc(C4=CCCN(C(=O)CCn5ccnn5)C4)c(F)c3[nH]2)CCO1` (single isomer, unassigned) was tested, and the IC50 [1] was under 0.1 µM and the IC50 [2] was under 0.1 µM.

`CCn1ncc2c1CN(C(=O)c1cc3c(-c4ccccc4C#N)cc(C4=CCCN(C(=O)CCn5ccnn5)C4)c(F)c3[nH]1)C2` gave an IC50 [1] of under 0.1 µM and an IC50 [2] of under 0.1 µM.

`Cc1ccccc1-c1cc(C2=CCCN(C(=O)CCn3ccnn3)C2)c(F)c2[nH]c(C(=O)N3CCN(c4ncccc4OC4CC4)CC3)cc12` gave an IC50 [1] of under 0.1 µM and an IC50 [2] of under 0.1 µM.

Compound `COc1cc(F)cnc1N1CCN(C(=O)c2cc3c(-c4cnccc4C#N)cc(C4=CCCN(C(=O)CCn5ccnn5)C4)c(F)c3[nH]2)CC1` has an IC50 [1] of over 100 µM and an IC50 [2] of over 100 µM.

With `CCn1ncc2c1CN(C(=O)c1cc3c(-c4cnccc4C#N)cc(C4=CCCN(C(=O)CCn5ccnn5)C4)c(F)c3[nH]1)C2` the IC50 [1] was under 0.1 µM and the IC50 [2] was under 0.1 µM.

For `COc1cc(F)cnc1N1CCN(C(=O)c2cc3c(-c4ccccc4F)cc(C4=CCCN(C(=O)CCn5ccnn5)C4)c(F)c3[nH]2)CC1`, the IC50 [1] was under 0.1 µM and the IC50 [2] was under 0.1 µM.

In the case of `CCc1nc(C)ccc1-c1cc(C(=O)N2CCN(c3ncc(F)cc3OC)CC2)cc2sc(C3=CCCN(C(=O)CCn4ccnn4)C3)nc12`, the IC50 [1] is reported as under 0.1 µM and the IC50 [2] is reported as under 0.1 µM.

Compound `CC(=O)N1CCC=C(c2cc(-c3ccc4c(c3)CC(=O)N4)c3cc(C(=O)N(C)C)[nH]c3c2F)C1` has an IC50 [1] of under 0.1 µM and an IC50 [2] of under 0.1 µM.

With `COc1cc(F)cnc1N1CCN(C(=O)c2cc3c(-c4cc(F)ccc4F)cc(C4=CCCN(C(=O)CCn5ccnn5)C4)c(F)c3[nH]2)CC1` the IC50 [1] was under 0.1 µM and the IC50 [2] was under 0.1 µM.

`CCc1ccncc1-c1cc(C(=O)N2CCN(c3ncc(F)cc3OC)CC2)cc2cc(C3=CCCN(C(=O)CCn4ccnn4)C3)n(CC3CC3)c12` showed an IC50 [1] of over 100 µM and an IC50 [2] of over 100 µM.

Compound `CCc1cc(C)c(-c2cc(C3=CCCN(C(=O)CCn4ccnn4)C3)c(F)c3[nH]c(C(=O)N4Cc5cnn(CC)c5C4)cc23)cn1` has an IC50 [1] of under 0.1 µM and an IC50 [2] of under 0.1 µM.

For `COc1cc(C)ncc1-c1cc(C2=CCCN(C(=O)CCn3ccnn3)C2)c(F)c2[nH]c(C(=O)N3CCN(C4CC4)CC3)cc12`, the IC50 [1] was under 0.1 µM and the IC50 [2] was under 0.1 µM.

`CC[C@H](O)CN1CCN(C(=O)c2cc3c(-c4ccccc4OC)cc(C4=CCCN(C(=O)CCn5ccnn5)C4)c(F)c3[nH]2)CC1` (single isomer, unassigned) showed an IC50 [1] of under 0.1 µM and an IC50 [2] of under 0.1 µM.

Compound `CCc1cc(C)ncc1-c1cc(C2=CCCN(C(=O)CCn3ccnn3)C2)c(F)c2[nH]c(C(=O)N3CCN(c4ncc(C)nc4OC)CC3)cc12` has an IC50 [1] of under 0.1 µM and an IC50 [2] of under 0.1 µM.

Work on `CCn1ncc2c1CN(C(=O)c1cc3c([C@@H]4CCN(C)C4)cc(C4=CCCN(C(=O)CCn5ccnn5)C4)c(F)c3[nH]1)C2` (single isomer, unassigned) yielded an IC50 [1] of over 100 µM and an IC50 [2] of over 100 µM.

`CCn1ncc2c1CN(C(=O)c1cc3c(-c4ccnn4C)cc(C4=CCCN(C(=O)CCn5ccnn5)C4)c(F)c3[nH]1)C2` showed an IC50 [1] of under 0.1 µM and an IC50 [2] of under 0.1 µM.

`COc1ccccc1-c1cc(C2=CCCN(C(=O)CCn3ccnn3)C2)c(F)c2[nH]c(C(=O)N3CCN(c4nc(C)ccc4OC)CC3)cc12` was tested, and the IC50 [1] was under 0.1 µM and the IC50 [2] was under 0.1 µM.

For `CCc1ncccc1-c1cc(C(=O)N2CCN(c3ncc(F)cc3OC)CC2)cc2cc(C3=CCCN(C(=O)CCn4ccnn4)C3)n(CC3CC3)c12`, the IC50 [1] was under 0.1 µM and the IC50 [2] was under 0.1 µM.

In the case of `COc1ccncc1-c1cc([C@H]2CCCN(C(=O)CCn3ccnn3)C2)c(F)c2[nH]c(C(=O)N3CCN(c4ncccc4OC)CC3)cc12` (single isomer, unassigned), the IC50 [1] is reported as under 0.1 µM and the IC50 [2] is reported as under 0.1 µM.

`COc1cc(F)cnc1N1CCN(C(=O)c2cc3c(-c4cccc(C5(C#N)CC5)c4F)cc(C4=CCCN(C(=O)CCn5ccnn5)C4)c(F)c3[nH]2)CC1` was tested, and the IC50 [1] was under 0.1 µM and the IC50 [2] was under 0.1 µM.

Work on `CCc1ccncc1-c1cc(C2=CCCN(C(=O)C(F)F)C2)c(F)c2[nH]c(C(=O)N3CCN(c4ncc(F)cc4OC)CC3)cc12` yielded an IC50 [1] of 0.1 to 1 µM and an IC50 [2] of 0.1 to 1 µM.

With `CCn1ncc2c1CN(C(=O)c1cc3c(-c4nccs4)cc(C4=CCCN(C(=O)CCn5ccnn5)C4)c(F)c3[nH]1)C2` the IC50 [1] was under 0.1 µM and the IC50 [2] was under 0.1 µM.

With `COc1ccc(CN2CCN(C(=O)c3cc4c(-c5ccccc5OC)cc(C5=CCCN(C(=O)CCn6ccnn6)C5)c(F)c4[nH]3)CC2)c(F)c1` the IC50 [1] was 0.1 to 1 µM and the IC50 [2] was 0.1 to 1 µM.

With `COc1ccncc1-c1cc([C@H]2CCCN(C(=O)CCn3cccn3)C2)c(F)c2[nH]c(C(=O)N3CCN(c4ncccc4OC)CC3)cc12` (single isomer, unassigned) the IC50 [1] was under 0.1 µM and the IC50 [2] was under 0.1 µM.

`CCc1ccc(-c2cc(C(=O)N3Cc4cnn(CC)c4C3)cc3cc(C4=CCCN(C(C)=O)C4)n(CC)c23)c(C)n1` gave an IC50 [1] of 0.1 to 1 µM and an IC50 [2] of 0.1 to 1 µM.

For `COC[C@@H]1CN(C(=O)c2cc3c(-c4ccccc4OC)cc(C4=CCCN(C(=O)CCn5ccnn5)C4)c(F)c3[nH]2)CCO1`, the IC50 [1] was under 0.1 µM and the IC50 [2] was under 0.1 µM.

For `CCn1ncc2c1CN(C(=O)c1cc3c(-c4nccn4C)cc(C4=CCCN(C(=O)CCn5ccnn5)C4)c(F)c3[nH]1)C2`, the IC50 [1] was under 0.1 µM and the IC50 [2] was under 0.1 µM.

`COc1ccccc1-c1cc(C2=CCCN(C(=O)CCn3ccnn3)C2)c(F)c2[nH]c(C(=O)N3CCC(N4CCCCC4)C3)cc12` (stereo not shown) gave an IC50 [1] of 0.1 to 1 µM and an IC50 [2] of 0.1 to 1 µM.

Work on `CC(=O)N1CCC=C(c2cc(-c3ccc(F)cc3C)c3cc(C(=O)N(C)C)[nH]c3c2F)C1` yielded an IC50 [1] of 0.1 to 1 µM and an IC50 [2] of 0.1 to 1 µM.
